Assay results reported in US8334304B2, “Aminosulfonyl substituted 4-(aminomethyl)-piperidine benzamides as 5HT4-antagonists” (Janssen Pharmaceutica N.V., priority 2003, dated 2012).

Sequences of proteins named here, by UniProt entry; tags and fusion partners are left off.
UniProt Q13639, whole entry: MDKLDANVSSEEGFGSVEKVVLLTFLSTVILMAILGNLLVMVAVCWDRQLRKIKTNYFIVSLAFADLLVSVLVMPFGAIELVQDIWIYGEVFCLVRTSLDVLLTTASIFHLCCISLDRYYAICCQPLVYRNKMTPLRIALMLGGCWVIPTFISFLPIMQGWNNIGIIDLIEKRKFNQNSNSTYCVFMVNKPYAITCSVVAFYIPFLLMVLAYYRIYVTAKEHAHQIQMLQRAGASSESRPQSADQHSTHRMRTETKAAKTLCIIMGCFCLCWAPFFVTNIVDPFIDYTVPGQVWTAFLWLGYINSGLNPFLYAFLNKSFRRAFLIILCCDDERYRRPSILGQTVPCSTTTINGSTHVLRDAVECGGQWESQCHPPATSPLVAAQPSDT

Columns and labels:
h5-HT4b = h5-HT4b (Homo sapiens, UniProt Q13639); assay: 5HT4 antagonism: [3H]GR113808 binding to membranes of h5-HT4b-HEK 293 clone 9 cells; conditions: displacement of 0.1 nM [3H]GR113808, membranes of h5-HT4b-HEK 293 cells, 30 min at 25° C.
[1] = Metabolic stability: incubation with liver microsomes and NADPH-generating system, LC-MS; conditions: compound 5 μM, microsomes 1 mg/ml, 37 degrees Celsius
Procedure: Sub-cellular tissue preparations were made according to Gorrod et al. (Xenobiotica 5: 453-462, 1975) by centrifugal separation after mechanical homogenization of tissue. Liver tissue was rinsed in ice-cold 0.1 M Tris-HCl (pH 7.4) buffer to wash excess blood. Tissue was then blotted dry, weighed and chopped coarsely using surgical scissors. The tissue pieces were homogenized in 3 volumes of ice-cold 0.1 M phosphate buffer (pH 7.4).
Tissue homogenates were centrifuged at 9000×g for 20 minutes at 4° C. The resulting supernatant was stored at −80° C. and is designated ‘S9’.
The S9 fraction can be further centrifuged at 100.000×g for 60 minutes (4° C.). The resulting supernatant was carefully aspirated, aliquoted and designated ‘cytosol’. The pellet was re-suspended in 0.1 M phosphate buffer (pH 7.4) in a final volume of 1 ml per 0.5 g original tissue weight and designated ‘microsomes’.
All sub-cellular fractions were aliquoted, immediately frozen in liquid nitrogen and stored at −80° C. until use.
For the samples to be tested, the incubation mixture contained PBS (0.1M), compound (5 μM), microsomes (1 mg/ml) and a NADPH-generating system (0.8 mM glucose-6-phosphate, 0.8 mM magnesium chloride and 0.8 Units of glucose-6-phosphate dehydrogenase). Control samples contained the same material but the microsomes were replaced by heat inactivated (10 minutes at 95 degrees Celsius) microsomes. Recovery of the compounds in the control samples was always 100%.
The mixtures were preincubated for 5 minutes at 37 degrees Celsius. The reaction was started at time point zero (t=0) by addition of 0.8 mM NADP and the samples were incubated for 60 minutes (t=60). The reaction was terminated by the addition of 2 volumes of DMSO. Then the samples were centrifuged for 10 minutes at 900×g and the supernatants were stored at room temperature for no longer as 24 hours before analysis. All incubations were performed in duplo. Analysis of the supernatants was performed with LC-MS analysis. Elution of the samples was performed on a Xterra MS C18 (50×4.6 mm, 5 μm, Waters, US). An Alliance 2790 (Supplier: Waters, US) HPLC system was used. Elution was with buffer A (25 mM ammoniumacetate (pH 5.2) in H2O/acetonitrile (95/5)), solvent B being acetonitrile and solvent C methanol at a flow rate of 2.4 ml/min. The gradient employed was increasing the organic phase concentration from 0% over 50% B and 50% C in 5 min up to 100% B in 1 minute in a linear fashion and organic phase concentration was kept stationary for an additional 1.5 minutes. Total injection volume of the samples was 25 μl. […]
Metabolic stability was expressed as % metabolism of the compound after 60 minutes (equation given as example) of incubation in the presence of active microsomes (E(act))

Cc1cc2c(c(C(=O)NC[C@@H]3CCN(CCCS(=O)(=O)NS(C)(=O)=O)C[C@H]3O)c1)OCCCO2
pIC50 (h5-HT4b): 7.8

Nc1cc(C(=O)NC[C@@H]2CCN(CCCS(N)(=O)=O)C[C@H]2O)c2c(c1Cl)OCCO2 (relative stereo)
pIC50 (h5-HT4b; tested form: hydrate (1:1)): 7.92

Cc1cc2c(c(C(=O)NC[C@@H]3CCN(CCCC(=O)NS(C)(=O)=O)C[C@H]3O)c1)OCCCO2
pIC50 (h5-HT4b; tested form: hydrate (1:1)): 7.51 | % metabolised compound after 60 minutes ([1]; tested form: hydrate (1:1)): 6%

Cc1cc2c(c(C(=O)NC[C@@H]3CCN(CCCCS(N)(=O)=O)C[C@H]3O)c1)OCCO2
pIC50 (h5-HT4b): 9.13 | % metabolised compound after 60 minutes [1]: 13%

CNc1cc2c(c(C(=O)NC[C@@H]3CCN(CCCS(N)(=O)=O)C[C@H]3O)c1)OCCO2 (relative stereo)
pIC50 (h5-HT4b; tested form: HCl (2:3) hydrate (1:2) 2-propanolate (2)): 7.66

COc1ccc(C(=O)NC[C@@H]2CCN(CCCCS(N)(=O)=O)C[C@H]2O)c2c1OCCO2
pIC50 (h5-HT4b): 8.83 | % metabolised compound after 60 minutes [1]: 11%

Nc1cc2c(c(C(=O)NC[C@@H]3CCN(CCCS(N)(=O)=O)C[C@H]3O)c1)OCCO2 (relative stereo)
pIC50 (h5-HT4b; tested form: hydrate (1:1)): 8.02

Nc1cc(C(=O)NC[C@@H]2CCN(CCCS(N)(=O)=O)C[C@H]2O)c2c(c1Cl)OCCCO2 (relative stereo)
pIC50 (h5-HT4b): 7.61

Cc1ccc(C(=O)NC[C@@H]2CCN(CCCCS(N)(=O)=O)C[C@H]2O)c2c1OCCCO2
pIC50 (h5-HT4b): 8.78 | % metabolised compound after 60 minutes [1]: 17%

CNc1cc2c(c(C(=O)NC[C@@H]3CCN(CCCS(N)(=O)=O)C[C@H]3O)c1)OCCCO2 (relative stereo)
pIC50 (h5-HT4b; tested form: E-2-butenedioate (2:1) hydrate (1:1) eth): 6.56
